US6753345B2, “7-hexanolytaxol and methods for preparing the same” (Hauser, Inc., priority 1998, dated 2004)

System: NCI-H322M
Test: SRB cytotoxicity screening assay (Non-Small Cell Lung Cancer)
Conditions: PG=−50, 48 hour incubation

**Q.** `CCCCCC(=O)O[C@H]1C[C@H]2OC[C@@]2(OC(C)=O)[C@H]2[C@H](OC(=O)c3ccccc3)[C@]3(O)C[C@H](OC(=O)[C@H](O)[C@@H](NC(=O)c4ccccc4)c4ccccc4)C(C)=C([C@@H](OC(C)=O)C(=O)[C@]12C)C3(C)C` [7-hexanoyltaxol] was tested. Which “Log10 LC50” value did it give?
**A.** Its value is >−4.00 molar.
